Consider 1 compound from patent US20020120242A1, “Absorbent articles with hydrophilic compositions containing botanicals” (priority 2000, published 2002).

In the series the test system is EPIDERM skin culture. Put plainly: MTT viability assay on EPIDERM skin culture after test composition + insult. The following applies: relative to control + PBS.

The structures appear in SMILES notation.

Take `[Cl-].[Cl-].[Sr+2]` [Strontium Chloride]: the “Viability (percentage)” value reads like this: (1% in PBS + protease insult) 85%; (10% in PBS + protease insult) 82%.
